Consider 2 compounds from patent publication US11858951B2, “Boronic acid derivatives” (Merck Patent GmbH, priority 2017, dated 2024).

Molecules are shown by their SMILES. Some results are limits rather than exact numbers.

Assay [1] concerns the target Beta5 (purified human constitutive proteasome) (Homo sapiens, UniProt P28074). Kind of assay: Determination of Beta5 activity (fluorescence intensity assay, Suc-LLVY-AMC). The class given is biochemical. The following applies: read-out: Beta5 IC50; incubation for 20 minutes at 25° C.; concentrations 30 μM to 15 pM.
The target of assay [2] is LMP7 (purified human immuno proteasome) (Homo sapiens, UniProt P28062). The assay can be described thus: Determination of LMP7 activity (fluorescence intensity assay, Suc-LLVY-AMC). Format: biochemical. The note with it: for Selectivity LMP7 vs Beta5: LMP7 versus Beta5, incubation for 20 minutes; for IC50: read-out: LMP7 IC50, incubation for 20 minutes at 25° C., concentrations 30 μM to 15 pM.

Consider `O=C(N[C@@H](Cc1coc2ccccc12)B(O)O)[C@@]12CC[C@@H](O1)c1ccccc12`, for which the IC50 (commonly the concentration that inhibits the measured activity by half) in assay [1] was 5000 to 30000 nM; in assay [2] it was below 50 nM. The “Selectivity LMP7 vs Beta5” value in assay [2] is recorded as “+++ (300 ≤ Selectivity < 500)”.
Consider `O=C(N[C@@H](Cc1coc2ccccc12)B(O)O)[C@]12CC[C@H](O1)c1ccccc12`, for which the IC50 in assay [1] was in the range of 500 to 5000 nM. Further, in assay [2], the “Selectivity LMP7 vs Beta5” value is listed as “+++++ (Selectivity ≥700)” and the 50% inhibitory concentration (IC50) is below 50 nM.
